The target in the test is Glutamate receptor ionotropic, NMDA 1 (Rattus norvegicus, UniProt P35439). Briefly: Protective Effects of Compounds on Primary Cerebellum Granule Cells of Rats. Here is the method:
Isolated primary cerebellum granule cells of infant rats were inoculated in 96-well plates with 1.2×10^5/well by using 10% FBS+25 mM KCl+2 mM Glutamine+1% of double-antibody BME medium. After 24 hours, cytarabine with a final concentration of 10 iM was added to inhibit the proliferation of neurogliocyte cells. After the day 4, glucose with the final concentration of 5 mM was added every four days to complement energy metabolism and water evaporation of cells. The materials were placed in a cell incubator (37° C., 5% CO2) to be cultured for 10 days. A 200 iM of glutamate was used to induce the excitotoxic injury of the primary cerebellum granule cells, with test groups of normal control group, glutamate group, pretreatment groups with different memantine nitrate compounds, and pretreatment control group with memantine. In the testing groups, the compounds of NM-001, NM-002, NM-003, NM-004, NM-005, NM-008, NM-009, NM-011, NM-012 and memantine were respectively added. After pre-protection for 2 h, 200 iM of glutamate was added to induce cell damage for 24 h, and then MTT was added to culture for 4 h. […] After blending with shaking, the light absorption values under 570 nm wavelength was measured with a microplate reader, and the viability of cells was calculated. Cell viability (%)=absorbance of different groups/absorbance of the normal control group×100%.

In general, EC50 refers to the concentration giving half of the maximal effect. A higher EC50 goes with weaker potency. For `CC12CC3CC(C)(C1)CC(N)(C3)C2` [US10214478, Compound memantine], the EC50 was determined as 2.72 µM.

Values taken from BindingDB's records for patent US10214478 (2019).
